Values quoted from earlier work, collected in paper PMC9103705, “Effects of Drugs Formerly Proposed for COVID-19 Treatment on Connexin43 Hemichannels” (International Journal of Molecular Sciences, 2022).

Settings: retrieved from the literature; cited from earlier work

## CCN(CCO)CCCC(C)Nc1ccnc2cc(Cl)ccc12 (stereo not shown) [Hydroxychloroquine (sulphate), Hydroxychloroquine]
  Cmax (total peak plasma concentration at therapeutic dose): 1.36 [27] µM
